Biological target: Mdm2 (Homo sapiens (Human), UniProt Q00987)
Test: Fluorescence polarization (FP) competition binding assay with Mdm2
Settings: Table 8, Formula II compounds, measured by FP

Protein sequences, listed by entry. Tags and fused reporters are not part of them.
UniProt Q00987, whole entry: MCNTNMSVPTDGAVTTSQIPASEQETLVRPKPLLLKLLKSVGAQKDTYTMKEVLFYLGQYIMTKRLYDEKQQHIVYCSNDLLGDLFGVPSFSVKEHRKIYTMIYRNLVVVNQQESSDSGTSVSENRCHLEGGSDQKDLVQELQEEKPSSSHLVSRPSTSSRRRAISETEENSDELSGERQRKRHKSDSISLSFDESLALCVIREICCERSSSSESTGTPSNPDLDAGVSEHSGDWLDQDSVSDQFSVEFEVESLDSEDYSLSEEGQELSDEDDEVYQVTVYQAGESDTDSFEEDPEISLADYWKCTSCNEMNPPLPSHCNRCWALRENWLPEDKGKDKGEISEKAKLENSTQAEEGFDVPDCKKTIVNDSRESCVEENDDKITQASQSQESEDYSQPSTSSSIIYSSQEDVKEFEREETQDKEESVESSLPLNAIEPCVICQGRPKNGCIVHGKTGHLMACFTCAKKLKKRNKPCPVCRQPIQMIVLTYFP

- Ki: 2000 nM
SMILES: CC(C)CC(NC(C(=O)NCc1ccccc1)c1c(C(=O)O)[nH]c2cc(Cl)ccc12)C(=O)N1CCOCC1 (stereo not shown)

Source: patent US9187441B2, “p53-Mdm2 antagonists” (University of Pittsburgh—Of the Commonwealth System of …, priority 2010, dated 2015)
